{"source": "patent US20260199359A1", "about": "(INCYTE CORPORATION, priority 2021, published 2026)", "details": "mean of n = 3", "note": "Where two headings read alike, the source gives them in different places."}
{"smiles": "N#CC[C@H](C1CCCC1)n1cc(-c2ncnc3[nH]ccc23)cn1", "note": "[Ruxolitinib phosphate, ruxolitinib phosphate]", "values": [{"measurement": "Solubility (% w/w) Ruxolitinib phosphate", "setting": "Buffer (pH 5), loaded at 0.1% w/w drug (in terms of freebase)", "result": 0.04, "unit": "% w/w"}, {"measurement": "Solubility (% w/w) Ruxolitinib phosphate", "setting": "Buffer (pH 7), loaded at 0.1% w/w drug (in terms of freebase)", "result": 0.03, "unit": "% w/w"}, {"measurement": "Solubility (% w/w) Ruxolitinib phosphate", "setting": "Deionised (unbuffered) water, in terms of salt form", "result": "about 1.8 % w/w"}]}
